According to patent publication US20030100550A1, “Carboxamide diazepin derivatives, preparation method, use as medicines, pharmaceutical compositions and use thereof” (priority 2002, published 2003):
pIC50: −log10 of the molar value.

Sequences of proteins named here, by UniProt entry; tags and fusion partners are left off. Residues count along the entry.
UniProt P43235, 115-329 limits assumed: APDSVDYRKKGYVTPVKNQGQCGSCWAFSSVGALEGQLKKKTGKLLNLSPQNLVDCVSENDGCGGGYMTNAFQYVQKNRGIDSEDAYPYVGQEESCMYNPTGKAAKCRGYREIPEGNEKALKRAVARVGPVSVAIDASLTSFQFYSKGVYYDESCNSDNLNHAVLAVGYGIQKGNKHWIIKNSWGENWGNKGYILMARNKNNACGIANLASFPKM
UniProt P00784, 134-345 limits assumed: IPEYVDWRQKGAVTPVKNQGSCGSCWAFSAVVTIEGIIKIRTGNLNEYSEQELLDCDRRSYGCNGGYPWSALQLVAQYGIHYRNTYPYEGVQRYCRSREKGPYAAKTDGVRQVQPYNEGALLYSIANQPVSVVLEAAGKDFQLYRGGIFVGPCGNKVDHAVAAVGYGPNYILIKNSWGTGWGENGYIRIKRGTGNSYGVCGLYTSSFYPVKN

Experiments:
Cathepsin K = Cathepsin K (Homo sapiens, UniProt P43235); assay: Study of Cathepsin K inhibition (fluorescence, Z-Val-arg-AMC); conditions: for Cathepsin K, percentage in parentheses beside IC50 value (% inhibition): printed beside 20 μM, meaning not explained; for pIC50: read-out: Cathepsin K IC50, substrate Z-Val-arg-AMC 20 μM, enzyme 5 ng/ml, 2H at ambient temperature
Procedure: Study of Cathepsin K Inhibition:
(§1) The products to be tested (10 mM) are diluted to […] in DMSO and distributed into Nunc polystyrene 96 well plates at a rate of 2 μl per well. Column 12 of the plate is reserved for the controls and therefore receives […] of DMSO (without products) per well. The plates are stored at −80° C. and thawed on the day of the experiment.
(§2) The products are diluted to 50 μM by adding 38 μl of reaction buffer: sodium acetate 100 mM, EDTA 5 mM, DTT […] pH 5.5. The addition as well as all the operations by pipette are carried out with a CybiWell 96 tip pipette. After mixing the solutions, each product is transferred into 2 wells (duplicates) of a Greiner black 384 well plate at a rate of 10 μl per well. Two 96-well plates can therefore be tested in a 384-well plate.
(§3) A solution of substrate at 50 μM, Z-Val-arg-AMC (Calbiochem), is prepared in the reaction buffer. The substrate, is then distributed into all the wells of the 384-well plate (20 μl per well).
(§4) A solution of Cathepsin K at 12.5 ng/ml is prepared in the reaction buffer and distributed into all the wells of the 384-well plate (20 μl per well) except for the 16 wells serving as 100% inhibition controls (column 23 and 24, lines I to P) which receive 20 μl of enzyme-free buffer.
(§5) The plates are then incubated 2H at ambient temperature, then read on Fluoroskan (Labsystems): excitation 390 nm; emission 460 nm
(§6) The final concentrations of each of the reagents are: products 10 μM, substrate 20 μM, enzyme 5 ng/ml.
(§7) The % inhibition for each of the products is calculated by using points at 0 and 100% inhibition of each plate as references. The products presenting a significant inhibition are then retested on a range of concentrations from 50 to 0.5 μM to determine an IC50.

Papain = Papain (Carica papaya, UniProt P00784); assay: Study of Papain inhibition (fluorescence); format: biochemical; conditions: for Papain, percentage in parentheses beside IC50 value (% inhibition): printed beside 20 μM, meaning not explained
Procedure: as §1, §2, §3, §4, §5, §6, §7
Study of Papain Inhibition:
(§8) Protocol identical to that of Cathepsin K except for:
Papain (Sigma), solution at 50 ng/ml, final concentration 20 ng/ml
Incubation for 30 minutes at ambient temperature

Cathepsin B = Cathepsin B (Homo sapiens, UniProt P07858); assay: Study of Cathepsin B inhibition (fluorescence, Z-arg-arg-AMC); conditions: printed beside 20 μM; meaning not explained
Procedure: as §1, §2, §3, §4, §5, §6, §7
Study of Cathepsin B Inhibition:
as §8
Z-arg-arg-AMC substrate (Calbiochem), solution at 50 μM, final concentration 20 μM
Cathepsin B (Calbiochem), solution at 40 ng/ml, final concentration 16 ng/ml
Incubation for 1 hour at ambient temperature

| SMILES | Cathepsin K, percentage in parentheses beside IC50 value (% inhibition) (Cathepsin K) | pIC50 (Cathepsin K) | pIC50 (Papain; read-out: Papain IC50, enzyme 20 ng/ml, 30 minutes at ambient temperature) | Cathepsin B, percentage in parentheses beside IC50 value (% inhibition) (Cathepsin B) | Papain, percentage in parentheses beside IC50 value (% inhibition) (Papain) |
| --- | --- | --- | --- | --- | --- |
| CC(C)(C)Oc1ccc(C[C@H](NC(=O)[C@@H]2CCCN3C(=O)CC[C@H](NC(=O)NCCc4cccs4)C(=O)N23)C(=O)CSc2nc3ccccc3s2)cc1 | 20 (20%) | 4.70 | 5.15 | – | – |
| C=CCOC(=O)CC[C@H](NC(=O)[C@@H]1CCCN2C(=O)CC[C@H](NC(=O)Nc3ccc(Oc4ccccc4)cc3)C(=O)N12)C(=O)CN1CCC(Cc2ccccc2)CC1 | – | 4.70 | – | 25% | 20 (20%) |
| C=CCOC(=O)CC[C@H](NC(=O)[C@@H]1CCCN2C(=O)CC[C@H](NC(=O)Nc3ccc(Oc4ccccc4)cc3)C(=O)N12)C(=O)COC(=O)CCCC(=O)OC | 35% | 4.70 | – | – | 18%) |
| CC(C)(C)Oc1ccc(C[C@H](NC(=O)[C@@H]2CCCN3C(=O)CC[C@H](NS(=O)(=O)c4ccc5ccccc5c4)C(=O)N23)C(=O)CSc2nc3ccccc3s2)cc1 | – | – | – | 20 (20%) | – |
| CC(C)(C)Oc1ccc(C[C@H](NC(=O)[C@@H]2CCCN3C(=O)CC[C@H](NS(=O)(=O)c4ccc5ccccc5c4)C(=O)N23)C(=O)CSc2nnnn2-c2ccccc2)cc1 | 20 (20%) | 4.70 | – | 20 (20%) | – |
